Some compounds may have been tested in ways that are not shown here.
Experiments:
[1] = system: klotho^hm mice; experiment: survival / lifespan of klotho^hm mice; conditions: treatment in drinking water, versus untreated
[2] = system: klotho^hm mice; experiment: histology of tissue calcification (H&E, von Kossa) in klotho^hm mice; conditions: klotho^hm mice 8 weeks old; drinking water: (NH4)2SO4 0.14 M, NH4Cl 0.28 M, NH4NO3 0.28 M, acetazolamide 800 mg/l, chloroquine diphosphate 0.288 mg/ml

Ammonium nitrate
lifespan [1]: drastic extension of the lifespans | calcification in analyzed tissues (trachea, lungs, kidneys, stomach, vessels) [2]: strongly reduce

— patent US20160346320A1, “SUBSTANCE FOR INHIBITING TISSUE CALCIFICATION, TISSUE FIBROSATION AND AGE-RELATED DISEASES” (Fresenius Kabi Deutschland GmbH, priority 2013, published 2016)
